Assay results published in paper PMC4338043, “Two Classes of Bacterial IMPDHs according to Their Quaternary Structures and Catalytic Properties” (2015).

Sequences of proteins named here, by UniProt entry; tags and fusion partners are left off. A change or cut given only in a name is not applied to a line headed by its entry.
UniProt Q2SWW9: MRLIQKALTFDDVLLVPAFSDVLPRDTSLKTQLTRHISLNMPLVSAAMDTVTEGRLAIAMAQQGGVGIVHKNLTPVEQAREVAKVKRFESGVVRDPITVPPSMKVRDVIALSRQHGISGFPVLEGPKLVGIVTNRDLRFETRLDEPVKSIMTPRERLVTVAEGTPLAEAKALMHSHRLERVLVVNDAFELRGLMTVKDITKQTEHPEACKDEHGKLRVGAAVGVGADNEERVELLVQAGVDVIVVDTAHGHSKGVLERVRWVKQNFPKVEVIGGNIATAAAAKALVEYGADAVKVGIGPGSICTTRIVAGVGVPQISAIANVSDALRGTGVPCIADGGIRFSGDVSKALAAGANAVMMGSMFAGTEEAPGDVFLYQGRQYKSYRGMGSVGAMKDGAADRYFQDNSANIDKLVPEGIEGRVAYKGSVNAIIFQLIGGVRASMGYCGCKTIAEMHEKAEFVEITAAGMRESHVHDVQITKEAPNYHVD

Target: IMPDHbt (Burkholderia thailandensis, UniProt Q2SWW9)
Assay: ATP-γ-AmNS fluorescence and fluorescence anisotropy binding
Conditions: fluorescence intensity, emission maximum and anisotropy unchanged

Adenosine-5′-triphosphate-γ-(sulfo-1-naphtyl)amide, triethylammonium salt
binding of ATP-γ-AmNS to the enzyme: does not bind
